Values quoted from earlier work as cited in patent US6641838B2, “Effervescent drug delivery system for oral administration” (Cima Labs Inc., priority 1998, dated 2003).

Details: in vivo, po

**Q.** For Methyldopa, which “range of bioavailability (inter- and intrasubject variability)” value is on record?
**A.** 8-62%
